In patent US4642340A, “Stable compounds of glucosamine sulphate” (Rotta Research Laboratorium S.p.A., priority 1981, dated 1987):

System: mice-embryo fibroblast
Test: Stimulation of the production of soluble GAG in mice-embryo fibroblast cultures, uptake of ^35 S
Type: cell-based, mice (strain C57 BL/6 stCrl)

## N[C@H]1C(O)O[C@H](CO)[C@@H](O)[C@@H]1O.O=S(=O)(O)O (stereo partly drawn)
10 γ/ml
  Soluble GAG synthesis, average ± s.e.: 7250 ± 905 cpm
50 γ/ml
  Soluble GAG synthesis, average ± s.e.: 11430 ± 1108 cpm
100 γ/ml
  Soluble GAG synthesis, average ± s.e.: 9980 ± 1271 cpm
